Each structure is given as a SMILES string. This is a selection; strong and weak results do not stand in their true shares. Calls of active or inactive are those of the source.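 Rule for the calls: active = inhibition above a per-plate cutoff, the mean of that plate's test compounds plus 3 SD (cut at about 27% in these data); inactive = the rest.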

By UniProt entry, the sequences of proteins in these tests, tags left out.
UniProt P08912, whole entry, looked up: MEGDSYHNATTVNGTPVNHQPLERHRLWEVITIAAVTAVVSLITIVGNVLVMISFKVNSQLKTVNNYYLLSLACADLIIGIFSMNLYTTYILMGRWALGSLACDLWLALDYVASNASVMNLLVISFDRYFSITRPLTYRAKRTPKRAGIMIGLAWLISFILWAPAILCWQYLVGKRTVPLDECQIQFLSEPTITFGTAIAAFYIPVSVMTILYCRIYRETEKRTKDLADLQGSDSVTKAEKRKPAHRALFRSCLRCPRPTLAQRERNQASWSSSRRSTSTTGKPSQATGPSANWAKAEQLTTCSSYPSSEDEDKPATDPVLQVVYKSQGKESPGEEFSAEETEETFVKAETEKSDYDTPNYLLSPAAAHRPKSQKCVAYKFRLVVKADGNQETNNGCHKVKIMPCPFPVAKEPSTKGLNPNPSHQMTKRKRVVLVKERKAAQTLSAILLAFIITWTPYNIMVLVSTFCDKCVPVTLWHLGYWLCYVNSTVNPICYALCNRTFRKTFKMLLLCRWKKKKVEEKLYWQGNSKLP

As a reminder, the inhibition is the drop in the measured response relative to a control, in per cent.

For this assay, the target named is Muscarinic acetylcholine receptor M5 (Homo sapiens) (UniProt P08912). The assay can be described thus: CHRM5 blockers of acetylcholine calcium response – CHO cells, Fluo-8 calcium fluorescence, primary screen (AID 624040).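 Note: 0% = acetylcholine EC80 with DMSO and 100% = DMSO without agonist.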 Conditions: CHO-hM5 cells, ACh EC80, at 3 µM, hits give high values.
As to `CCC1=CC2Cc3nc4ccc(Cl)cc4c(N)c3C(C1)C2` (centres undefined), the inhibition was inactive: -7.11%.

As to `O=P1(Nc2ccccn2)COc2ccccc2OC1`, the inhibition is inactive: 1.91%.

For the compound `CCOP(=O)(NC(=NC(C)c1ccccc1)NC(C)c1ccccc1)OCC` (centres undefined), the inhibition was inactive: 2.03%.

As to `CN(CCCl)Cc1cc(Cl)c(NC2=NCCN2)c(Cl)c1`, the inhibition was inactive: -3%.

For the compound `CCOP(=O)(Nc1ccc(C)cn1)OCC`, the inhibition is inactive: 10.4%.

Take `Clc1n[nH]nc1-c1nn[nH][15n]1`: the inhibition was inactive: -2.92%.

For `O=P1(N(CCCl)CCCl)NCCC(C(F)(F)F)O1` (centres undefined), the inhibition was inactive: 11.7%.

For `CC(C)(C)C(=O)NC(Sc1ncccn1)C(Cl)(Cl)Cl` (centres undefined), the inhibition is inactive: -4.61%.

Turning to `COc1ccccc1CNC(=O)COC(=O)C(O)(c1ccccc1)c1ccccc1`, the inhibition is inactive: 6.37%.

Turning to `CN(C(=O)Cc1ccc(Cl)c(Cl)c1)[C@@H]1CCCC[C@H]1N1CCCC1`, the inhibition is inactive: 1.79%.

For `CC(C)/C=N\N=C(\N)N[N+](=O)[O-]`, the inhibition was inactive: 7.47%.

Turning to `CC1(CBr)Cn2c(nc3ccccc3c2=O)S1` (centres undefined), the inhibition was inactive: -3.67%.

As to `Cc1nn(-c2ccccc2)c2c1P(=O)(N1CCOCC1)N(C)C(c1ccccc1)=N2` (centres undefined), the inhibition was inactive: -0.91%.

Turning to `Cc1ccc(C(=O)OC2CN3CCC2CC3)cc1` (centres undefined), the inhibition is inactive: -2.06%.

In the case of `CC1CCC(C(C)C)C(OP(=O)(Nc2ccccn2)c2ccccc2)C1` (centres undefined), the inhibition is inactive: -7%.

Take `O=C(/C=C/c1ccccc1)OC1CN2CCC1CC2` (centres undefined): the inhibition was inactive: 6.18%.

For `CCCC1OP(=O)(Nc2ccccc2)OCC1CC` (centres undefined), the inhibition is inactive: 4.16%.

Consider `Cc1ccc(S(=O)(=O)N(CCCN)CCCc2c(C)nc(N)[nH]c2=O)cc1`, for which the inhibition is inactive: -6.71%.

With `O=P1(Nc2ncccn2)COc2ccccc2OC1`, the inhibition is inactive: 0.25%.

Consider `Nc1cccc([As](=O)(O)c2ccccc2)c1`, for which the inhibition was inactive: 15.5%.

On to `NS(=O)(=O)c1cccc(NC(=O)COC(=O)C(O)(c2ccccc2)c2ccccc2)c1`, for which the inhibition was inactive: 15.4%.

In the case of `O=P1(Nc2ccc(Br)cn2)COc2ccccc2OC1`, the inhibition was inactive: 5.45%.

For `O=[As](O)(c1cccs1)c1cccs1`, the inhibition is inactive: -1.9%.

Consider `Cc1ccc(OCC(=O)OC2CN3CCC2CC3)cc1` (centres undefined), for which the inhibition was inactive: 17.9%.

Consider `CCOP1(=S)c2c(C)nn(CCC#N)c2N=C(c2ccccc2F)N1C` (centres undefined), for which the inhibition is inactive: 19.7%.

`O=P(Nc1nccs1)(c1ccccc1)c1nc2ccccc2s1` (centres undefined): the inhibition was inactive: -1.15%.

For the compound `O=P(Nc1nccs1)(Oc1ccccc1)Oc1ccccc1`, the inhibition was inactive: 0.59%.

With `CS(=O)(=O)c1cc([N+](=O)[O-])c2no[n+]([O-])c2c1`, the inhibition was inactive: 3.04%.

Turning to `O=C(O)COc1ccc([As](=O)(O)O)cc1[N+](=O)[O-]`, the inhibition was inactive: -1.36%.

With `Nc1ccccc1[As](=O)(O)c1ccccc1`, the inhibition was inactive: -0.11%.

In the case of `NC(=O)Nc1ccc([As](=O)(O)O)cc1`, the inhibition is inactive: 7.37%.

For the compound `N#CCCN(C(=O)COC(=O)C(O)(c1ccccc1)c1ccccc1)c1ccc(F)cc1`, the inhibition was inactive: 1.79%.

On to `CN(C(=O)Cc1ccccc1)[C@@H]1CC[C@]2(CCCO2)C[C@H]1N1CCCC1`, for which the inhibition is inactive: -3.55%.

On to `CCOP1(=S)c2c(C)nn(CCC#N)c2N=C(c2ccc(F)cc2)N1C` (centres undefined), for which the inhibition was inactive: 6.55%.

As for `CN(C)C(=O)c1cc([N+](=O)[O-])cc2c1-c1c(cc([N+](=O)[O-])cc1[N+](=O)[O-])C2=O`, the inhibition was inactive: 1.15%.

In the case of `O=[N+]([O-])c1ccc2c(c1)nnn2O`, the inhibition was inactive: -4.11%.

Turning to `CN(C(=O)Cc1ccc(Cl)c(Cl)c1)[C@H]1CC[C@@]2(CCCO2)C[C@@H]1N1CCCC1`, the inhibition is inactive: -4.91%.

With `O=C(OC1CN2CCC1CC2)c1ccc(Cl)cc1` (centres undefined), the inhibition was inactive: 17.6%.

Take `O=[As](O)(O)c1cccnc1`: the inhibition was inactive: 0.13%.

With `CS(=O)(=O)c1ccc(Cl)c(NC(=O)COC(=O)C(O)(c2ccccc2)c2ccccc2)c1`, the inhibition is inactive: -4.08%.

On to `O=[As](O)(c1cccc(O)c1)c1cccc(O)c1`, for which the inhibition was inactive: 3.72%.

Turning to `Cc1cccc(OCC(=O)OC2CN3CCC2CC3)c1` (centres undefined), the inhibition is inactive: 14.7%.

Consider `Nc1cccc2c([As](=O)(O)O)cccc12`, for which the inhibition was inactive: 2.47%.

Consider `Cc1ccc(NCCc2c([N+](=O)[O-])cc([N+](=O)[O-])cc2[N+](=O)[O-])cc1`, for which the inhibition is inactive: -9.17%.

In the case of `CCCOP(=S)(Nc1nc(N)cc(=O)[nH]1)OCCC`, the inhibition is inactive: 5.58%.

Turning to `C[C@H]1C(=O)O[C@@H]2CCN3CC=C(COC(=O)[C@](C)(O)[C@]1(C)O)[C@H]23`, the inhibition was inactive: 1.18%.

For `COc1cc(C2NCCC3(OCCO3)C2(C)C)cc(OC)c1OC` (centres undefined), the inhibition was inactive: -4.77%.

Take `CCOP(=O)(Nc1cccc2ccccc12)OCC`: the inhibition is inactive: -6.01%.

With `Cc1c2c(nc3ccccc13)SC(C(Cl)Cl)C2` (centres undefined), the inhibition is inactive: 7.78%.

On to `Cc1cc(=O)[nH]c(N[N+](=O)[O-])n1`, for which the inhibition was inactive: 18.8%.

Regarding `O=P1(N(CCCl)CCCl)Nc2ccccc2N1`, the inhibition is inactive: 17.6%.

For the compound `O=P1(N(CCCl)CCCl)OCCCN1CCCl` (centres undefined), the inhibition is inactive: 4.03%.

For `COc1ccc2nc(NP(=O)(c3ccccc3)c3ccccc3)sc2c1`, the inhibition is inactive: 6.21%.

On to `COc1cc(I)ccc1[As](=O)(O)O`, for which the inhibition is inactive: -11.4%.

`O=[N+]([O-])c1cc(Oc2ccc([N+](=O)[O-])cc2C(F)(F)F)cc([N+](=O)[O-])c1`: the inhibition is inactive: 9.69%.

Consider `COc1ccc(N/C(=N/P(=O)(N2CCOCC2)N2CCOCC2)N2CCOCC2)cc1`, for which the inhibition was inactive: -2.83%.

For `C[As](=O)(O)c1cccc(C(=O)O)c1`, the inhibition was inactive: 2.8%.

For the compound `O=[As](O)(c1ccc(O)cc1)c1ccccc1O`, the inhibition is inactive: -3.74%.

With `O=[N+]([O-])c1ccc(-c2cc([N+](=O)[O-])c(O)c([N+](=O)[O-])c2)cc1`, the inhibition is inactive: -1.42%.

`Cc1ccc(OP(=O)(Nc2ccc([N+](=O)[O-])cn2)Oc2ccc(C)cc2)cc1`: the inhibition is inactive: 7.59%.

As for `[N-]=[N+]=NC1CCCCC1NC(=O)c1cc([N+](=O)[O-])cc([N+](=O)[O-])c1` (centres undefined), the inhibition is inactive: 0.29%.

As for `CC(Cc1ccc(O)cc1)NCC(O)c1cc(O)cc(O)c1` (centres undefined), the inhibition was inactive: 3.58%.

Consider `Cc1ccc2nc3c(c(C)c2c1)CC(C(Cl)Cl)S3` (centres undefined), for which the inhibition is inactive: -13.7%.

`ClCCSc1nnc(-c2cccnc2)o1`: the inhibition is inactive: -4.85%.

With `CC(C)c1ccc(OP(=O)(Nc2ccccn2)Oc2ccccc2F)cc1` (centres undefined), the inhibition is inactive: 6.54%.

As to `COC(=O)C1(C)COP(=O)(N2CCCCCC2)OC1` (centres undefined), the inhibition was inactive: 3.35%.

Regarding `O=C(OC1CN2CCC1CC2)c1cccc2[nH]cnc12` (centres undefined), the inhibition was inactive: -2.53%.

With `CCN(CC)C(=S)SC(NC=O)C(Cl)(Cl)Cl` (centres undefined), the inhibition is inactive: 6.56%.

Consider `CC(C)NC(=O)NP(=O)(Oc1ccccc1)Oc1ccccc1`, for which the inhibition was inactive: 4.91%.

As to `O=[N+]([O-])c1cc([N+](=O)[O-])c(-c2ccn[nH]2)s1`, the inhibition is inactive: 9.21%.

For the compound `O=C(O)C(O)c1ccc(N(CCCl)CCCl)cc1` (centres undefined), the inhibition was inactive: 4.6%.

Regarding `CCOC(=O)Nc1ccc([As](=O)(O)O)c(O)c1`, the inhibition is inactive: -6.61%.

Consider `CC1CCNP(=O)(N(CCCl)CCCl)O1` (centres undefined), for which the inhibition was inactive: 14.4%.

Turning to `C/C=C1/CC(C)C(C)(O)C(=O)OCC2CCN3CCC(OC1=O)C23` (centres undefined), the inhibition is active: 47.9%.

`COP(=O)(OC)N1CC1c1ccccc1` (centres undefined): the inhibition was inactive: -2.25%.

Consider `Cc1cc(SC(NC(=O)c2ccccc2)C(Cl)(Cl)Cl)nc(C(C)C)n1` (centres undefined), for which the inhibition was inactive: 3.8%.

In the case of `CCOC(=O)Nc1cccc([As](=O)(O)O)c1`, the inhibition is inactive: 8.93%.

`Cc1cc(SC(NC=O)C(Cl)(Cl)Cl)ncn1` (centres undefined): the inhibition was inactive: -9.52%.

With `O=P(Nc1ccccn1)(c1cccc2ccccc12)c1cccc2ccccc12`, the inhibition was inactive: -10.2%.

With `O=[N+]([O-])c1ccc(Nc2ccc(Oc3ccc([N+](=O)[O-])cc3[N+](=O)[O-])cc2)c([N+](=O)[O-])c1`, the inhibition was inactive: 6.35%.

In the case of `COP1(=S)c2c(C)nn(CCC#N)c2N=C(c2ccc(F)cc2)N1C` (centres undefined), the inhibition is inactive: 1.14%.

For `COC(=O)C1(C)COP(=O)(N2CCCC2)OC1` (centres undefined), the inhibition was inactive: 7.27%.

On to `O=C(O)C(=O)c1ccc(N(CCCl)CCCl)cc1`, for which the inhibition is inactive: -1.97%.

Regarding `O=C(Nc1ccncc1[N+](=O)[O-])c1ccc([N+](=O)[O-])cc1[N+](=O)[O-]`, the inhibition was inactive: 1.07%.

Take `O=C(OC1CN2CCC1CC2)c1cccc([N+](=O)[O-])c1` (centres undefined): the inhibition was inactive: 8.94%.

Regarding `CSc1ccc(Nc2c([N+](=O)[O-])cc([N+](=O)[O-])cc2[N+](=O)[O-])cc1`, the inhibition is inactive: 21.2%.

Consider `CCOC(=O)c1ccc(NC(=O)C(C)(CCl)SC)cc1` (centres undefined), for which the inhibition is inactive: 5.19%.

Take `CCC(C)N(CC(C)C)C(=S)SC(NC(C)=O)C(Cl)(Cl)Cl` (centres undefined): the inhibition was inactive: 2.6%.

On to `COc1ccc(C2=NCC(CBr)S2)cc1` (centres undefined), for which the inhibition is inactive: 7.61%.

As for `Cc1ccc(NP(=O)(Oc2ccccc2)Oc2ccccc2)nc1`, the inhibition was inactive: 6.95%.

On to `O=[N+]([O-])c1cc([N+](=O)[O-])c(CCNc2ccccc2)c([N+](=O)[O-])c1`, for which the inhibition is inactive: 2.06%.

For `CCc1nc2c(n1)c1c(non1O)c1c2no[n+]1[O-]`, the inhibition is inactive: 5.02%.

On to `CC(=O)N1C2C3N(C(C)=O)C1C1N(C(C)=O)C(C(N1C(C)=O)N3C(C)=O)N2C(C)=O`, for which the inhibition was inactive: -5.25%.

As for `O=[N+]([O-])c1cccc2n[nH]nc12`, the inhibition is inactive: 1.43%.

Regarding `CCN(/C(=N/P(=O)(N1CCOCC1)N1CCOCC1)N1CCOCC1)c1ccc(OC)cc1`, the inhibition was inactive: 4.34%.

Consider `Nc1ccc([As](=O)(O)c2ccc(N)cc2)cc1`, for which the inhibition is inactive: 6.5%.

Regarding `C[N+]1=C2C=CC=CC=C2SC12C([N+](=O)[O-])=CC([N+](=O)[O-])=C[C-]2[N+](=O)[O-]` (centres undefined), the inhibition was active: 42.6%.

As to `c1cc(-c2nn[nH]n2)ccc1-c1nn[nH]n1`, the inhibition was inactive: -10.1%.

Regarding `CC1CCN(C(=O)Oc2c(Cl)cc(Cl)c3cccnc23)CC1`, the inhibition is inactive: -5.68%.

The values are drawn from PubChem BioAssay AID624040 (The Scripps Research Institute Molecular Screening Center, 2012).
